Ab-95 light chain CDR variants: yeast mating affinities

Values reported by Engelhart et al. 2022, doi:10.1038/s41597-022-01779-4 (FLAb copy).

All variants were tested on one target, the spike HR2 peptide PDVDLGDISGINAS (SARS-CoV-2).

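Phage display of a naive human antibody library on the peptide gave the parent. In library AAYL52, one, two or three CDR residues were substituted; doubles and triples were drawn at random. The scFvs were displayed on barcoded MATa yeast, the peptide on MATalpha yeast. The frequency of each diploid, read from paired DNA barcodes, reflects how well the two displayed proteins bind. The ratio of observed to expected reads was calibrated, replicate by replicate, on BCL2-family standards whose Kd was known from biolayer interferometry. Each pool was mated in three replicate cultures.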

The variants keep the heavy chain, the linker and the frameworks of Ab-95 (scFv order VH, three GGGGS repeats, VL).
VH: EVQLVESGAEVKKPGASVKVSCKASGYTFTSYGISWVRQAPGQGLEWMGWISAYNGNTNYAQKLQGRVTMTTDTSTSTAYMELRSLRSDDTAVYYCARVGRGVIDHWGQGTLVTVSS
VL: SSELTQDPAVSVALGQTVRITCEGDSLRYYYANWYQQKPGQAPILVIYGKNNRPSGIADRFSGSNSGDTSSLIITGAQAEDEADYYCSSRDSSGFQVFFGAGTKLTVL

Each variant is given by its three light chain CDRs, as the data file delimits them; those of the parent are EGDSLRYYYAN, GKNNRPS, SSRDSSGFQVF.
The read-out is the apparent dissociation constant on a log10 scale (nM): the lower, the stronger.
The mean shown is taken over the replicates in which the pair was detected.
"not detected" means that the variant was in the library but no mating with the target was seen in any replicate; the authors take this as a sign of poor binding, and no number exists.
Parent in this assay: reference entry 2.31, copy in this library 2.25.
As a blank, each scFv also met three strains without target: over library AAYL52, 28% of these pairings were detected, typically at 3.91 and seldom below 2.90. Also given: how often the same scFv was detected with the empty control strains.

CDR-L1	CDR-L2	CDR-L3	log10 Kd (nM), mean	detected	empty controls
EGDSLRYHYAN	NKNNRPY	SSRDSSGFQVF	1.20	3 of 3	4 of 9
ESDSLRYYYAN	GKNGRPS	SVRDSSGFQVF	2.28	3 of 3	1 of 9
EGDSLRYYYAN	GANNRPS	IDRDSSGFQVF	4.46	2 of 3	2 of 9
EGDYLRYYYAN	GKNNRPS	SSDDSSGFQLF	3.39	1 of 3	1 of 9
EGDSLRYYYAN	GKNNRPA	SSADSSGFQVF	not detected	0 of 3	4 of 9
EGDSLRYYYIF	GKKNRPS	SSRDSSGFQVF	4.44	1 of 3	1 of 9
EGDSLPYYYAN	GKNNRPS	SSRDPSGFIVF	2.75	3 of 3	3 of 9
SGDSLRYYYAN	GKNNRPS	SSRDSSGYQVF	1.65	3 of 3	2 of 9
EGYSLRMYYAN	GKNNRLS	SSRDSSGFQVF	3.90	3 of 3	7 of 9
EGDSLRYYYAY	GKNNRPS	SRRDSSGFWVF	4.37	1 of 3	5 of 9
EGDSLRYYYAN	GKNWRVS	SSFDSSGFQVF	3.91	1 of 3	5 of 9
EGDSLRYIVAN	GKNNRPS	SSRDSWGFQVF	3.66	2 of 3	4 of 9
EGDYLRYYYAN	GKNNRPS	TSRDSSEFQVF	3.46	2 of 3	3 of 9
EGDWLRYYYAN	GMNNRPS	SSRDSSGMQVF	4.03	3 of 3	6 of 9
GGDSLRYYYAN	GKNNRPS	SSRWSSGFQTF	3.88	1 of 3	2 of 9
EGDSLRYYYAN	GKNNRPQ	SSRDSSGIFVF	3.80	2 of 3	4 of 9
EGDSLRYYYIN	GKNNHPS	SSRLSSGFQVF	not detected	0 of 3	0 of 9
QGDYLRYYYAN	GVNNRPS	SSRDSSGFQVF	3.26	3 of 3	5 of 9
EGDELRYYYAN	GKNNRFS	SSRDSSGFRVF	3.88	1 of 3	4 of 9
EGDSLSYYYHN	GKNNRPS	SSRDDSGFQVF	3.02	2 of 3	2 of 9
EGISLRYYYAN	GKNNRPS	SSRDSSGFDVK	2.08	3 of 3	6 of 9
EGDSLVYYYAN	GKPNRPS	SSRDSSGFQVF	not detected	0 of 3	1 of 9
EGDSLRYYYAN	GKNNRWS	SSVDSSGFQVF	3.80	2 of 3	3 of 9
EGDSLRYYYAN	GCVNRPS	SSADSSGFQVF	4.18	3 of 3	7 of 9
EGDSLRYYYAN	GINNRPS	SIRDSSGSQVF	3.75	1 of 3	2 of 9
EGSSLRYYYAN	GKNNRPS	STRDSPGFQVF	2.26	3 of 3	1 of 9
EGMSLRYYYAN	GKNNRPD	SSRDSLGFQVF	2.75	3 of 3	3 of 9
EGDSLRYYYAN	FKNERPS	SSADSSGFQVF	not detected	0 of 3	0 of 9
EGPRLRYYYAN	GKVNRPS	SSRDSSGFQVF	not detected	0 of 3	1 of 9
EGDSLRYNYAC	GKNNRPS	SSRDSSGIQVF	2.99	3 of 3	1 of 9
EGDRLRYYYKN	GKNNRPS	SSRDYSGFQVF	1.88	3 of 3	2 of 9
EGDSLRYQYAN	GENNRPS	SSRYSSGFQVF	0.81	3 of 3	2 of 9
EGDRLRYYYAN	FKNNRPS	SSRDSSGFQTF	4.34	2 of 3	2 of 9
SGDSTRYYWAN	GKNNRPS	SSRDSSGFQVF	2.98	3 of 3	3 of 9
EFDSLRHYYAN	GKNNRPS	SSRDSSGIQVF	3.24	3 of 3	2 of 9
EGDSLRKYYMN	GKNWRPS	SSRDSSGFQVF	3.43	2 of 3	0 of 9
EGWSLRYYYAN	GKNNRPS	SSSDSSCFQVF	3.34	1 of 3	0 of 9
EGDSLRYYYAN	GKNIRPS	SSPDCSGFQVF	2.85	3 of 3	1 of 9
EYDCLRYYYAN	GKNNRPS	SWRDSSGFQVF	3.57	1 of 3	6 of 9
EGDSLRYYYAN	GKNNRPS	WSWDSSFFQVF	1.95	3 of 3	2 of 9
EGDSLRYDYAN	YKNNRPS	SSRDSSGFWVF	3.64	2 of 3	4 of 9
EGDSLRYYYAN	GRNNRPS	SSRDSSGFQVR	2.09	3 of 3	0 of 9
EGDSLRYYYAN	HKPNRPY	SSRDSSGFQVF	4.76	1 of 3	3 of 9
EGDSLRYYYGN	GKNNRPS	SSRWMSGFQVF	not detected	0 of 3	0 of 9
EGDLLRYQYAN	GHNNRPS	SSRDSSGFQVF	2.48	3 of 3	5 of 9
EGDSLRYTYSN	KKNNRPS	SSRDSSGFQVF	3.85	1 of 3	1 of 9
EGDSLSYYYAN	GKNNRPS	SSRDSSGFQVV	2.88	3 of 3	3 of 9
EGDSLRNYYAN	GKNKRPS	WSRDSSGFQVF	2.72	3 of 3	2 of 9
EGDSLRYYYAN	GKNYRPC	SSRDSSGFQVF	not detected	0 of 3	0 of 9
EGDSLRYYMAN	GKNNRPS	SHRDSSGFAVF	2.28	3 of 3	4 of 9
EGDSLRYYYAN	GKNNRPS	SSYDSSGRQVS	4.50	2 of 3	1 of 9
NGDHLRYYYAN	GKNNRPS	SSRDSSMFQVF	4.23	2 of 3	2 of 9
ETDSLRYYYAN	GKNNRPS	SSAISSGFQVF	4.38	2 of 3	1 of 9
EGDPLRYYYAN	GMNNRPS	KSRDSSGFQVF	not detected	0 of 3	4 of 9
EGDILRYYYAN	DKNNRPS	SSRDSSSFQVF	3.85	1 of 3	3 of 9
EGDSLRYYYAN	NDNNRPS	SSRDSSSFQVF	4.72	2 of 3	2 of 9
EGDSLWYTYAT	GKNNRPS	SSRDSSGFQVF	2.67	1 of 3	1 of 9
EGDSLRYYYAN	GKNVRPN	SSRDSLGFQVF	2.63	3 of 3	3 of 9